BindingDB's records for PubMed 7815325 (Duke University, 1995)

By UniProt entry, the sequences of proteins in these tests, tags left out.
UniProt P18841, whole entry: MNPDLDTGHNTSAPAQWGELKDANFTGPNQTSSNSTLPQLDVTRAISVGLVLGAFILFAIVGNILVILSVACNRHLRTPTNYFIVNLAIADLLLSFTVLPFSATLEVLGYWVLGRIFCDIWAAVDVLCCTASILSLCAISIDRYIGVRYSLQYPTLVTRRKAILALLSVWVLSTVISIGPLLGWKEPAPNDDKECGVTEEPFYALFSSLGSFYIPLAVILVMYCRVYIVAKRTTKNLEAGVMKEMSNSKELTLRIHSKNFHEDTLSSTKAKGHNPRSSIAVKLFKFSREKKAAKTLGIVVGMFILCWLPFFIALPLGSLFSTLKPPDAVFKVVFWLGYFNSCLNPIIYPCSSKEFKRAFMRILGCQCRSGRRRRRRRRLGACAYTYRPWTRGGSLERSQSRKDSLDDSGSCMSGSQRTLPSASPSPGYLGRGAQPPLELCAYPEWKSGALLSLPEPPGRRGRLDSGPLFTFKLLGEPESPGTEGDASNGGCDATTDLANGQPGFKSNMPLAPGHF

Experiments:
[1] = target: T1, Alpha-1A adrenergic receptor (Rattus norvegicus, UniProt P43140)
T1 sequence (P43140 whole entry): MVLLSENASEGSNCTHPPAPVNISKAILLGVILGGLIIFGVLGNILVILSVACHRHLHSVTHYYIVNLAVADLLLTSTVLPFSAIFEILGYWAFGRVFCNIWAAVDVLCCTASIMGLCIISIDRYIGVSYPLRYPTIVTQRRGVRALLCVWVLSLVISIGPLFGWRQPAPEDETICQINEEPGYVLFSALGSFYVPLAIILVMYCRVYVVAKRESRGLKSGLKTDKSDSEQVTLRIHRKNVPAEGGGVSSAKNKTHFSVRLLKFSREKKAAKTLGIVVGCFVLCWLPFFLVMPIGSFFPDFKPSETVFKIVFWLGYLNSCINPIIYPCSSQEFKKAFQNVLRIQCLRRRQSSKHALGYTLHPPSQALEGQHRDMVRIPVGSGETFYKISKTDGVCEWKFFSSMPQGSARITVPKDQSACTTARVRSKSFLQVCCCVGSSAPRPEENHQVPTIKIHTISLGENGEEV

[2] = target: Alpha-1B adrenergic receptor (Cricetidae sp., UniProt P18841)
[3] = target: T2, Alpha-1A adrenergic receptor (Bos taurus, UniProt P18130)
T2 sequence (P18130 whole entry): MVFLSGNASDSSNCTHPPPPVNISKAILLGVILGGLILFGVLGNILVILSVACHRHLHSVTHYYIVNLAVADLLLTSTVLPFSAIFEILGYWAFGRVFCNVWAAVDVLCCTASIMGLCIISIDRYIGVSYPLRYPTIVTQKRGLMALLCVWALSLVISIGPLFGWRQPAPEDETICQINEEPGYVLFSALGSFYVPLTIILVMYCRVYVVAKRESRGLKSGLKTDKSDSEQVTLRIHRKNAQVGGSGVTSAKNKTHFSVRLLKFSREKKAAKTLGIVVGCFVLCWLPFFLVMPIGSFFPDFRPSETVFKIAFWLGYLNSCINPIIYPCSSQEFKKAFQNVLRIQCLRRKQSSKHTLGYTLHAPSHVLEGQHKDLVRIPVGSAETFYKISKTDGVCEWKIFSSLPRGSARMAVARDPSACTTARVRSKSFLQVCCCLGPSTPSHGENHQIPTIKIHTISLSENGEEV

Ki [1] [µM] | Ki [3] [µM] | Structure (SMILES) | Ki [2] [µM]
0.00501 | – | COc1cc2nc(N3CCN(C(=O)C4CCCO4)CC3)nc(N)c2cc1OC (stereo not given) [6,7-dimethoxy-2-[4-(tetrahydrofuran-2-ylcarbonyl)piperazin-1-yl]quinazolin-4-amine] | –
0.251 | 7.94 | CNCC(O)c1ccc(O)c(O)c1 (stereo not given) [EPINEPHRINE] | –

Structure (SMILES) | Ki [1] [µM] | Ki [3] [µM] | Ki [2] [µM]
O=C(CCCN1CCC2(CC1)C(=O)NCN2c1ccccc1)c1ccc(F)cc1 [8-[4-(4-fluorophenyl)-4-oxidanylidene-butyl]-1-phenyl-1,3,8-triazaspiro[4.5]decan-4-one] | 0.0398 | – | 0.0316
